Compound activity deposited in PubChem by National Center for Advancing Translational Sciences (NCATS).
Anesthetic bind = binds horse apoferritin like a general anesthetic; apoferritin/1-aminoanthracene competitive binding, fluorescence; Potency, µM (doses to about 77.5 µM), inactives show at the highest dose activity change, negative = displacement, actives largely listed as inhibitors; hit rate 0.074% among 350,000; AID 485281; further: potency means the concentration at half of the fitted maximal effect; on the % scale 0 is the no-effect control and ±100 the full control effect; nearly all actives have a fitted effect of over 20% in size
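Horse-spleen apoferritin (10 uM) was mixed with 50% saturated 1-aminoanthracene in PBS, exposed to compounds for 10 min at room temperature, and read for fluorescence (ex 380 nm, em 535 nm). Competitive displacement was fitted with a four-parameter Hill equation.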
rTrxR1 inhibitor = rat TrxR1 inhibition; hit rate 1% among 390,000; Potency, µM (titrated, usually from 114 µM), for inactives: top-dose activity change, negative = inhibition, actives largely listed as inhibitors; recombinant rTrxR1, NADPH fluorescence consumption, selenite substrate; further: potency means the concentration at half of the fitted maximal effect; on the % scale 0 is the no-effect control and ±100 the full control effect; nearly all actives have a fitted effect of over 65% in size
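Rat TrxR1 (90 nM in the dispensed reagent) was pre-reduced with 400 uM NADPH for 5 min at room temperature, then incubated with compound for 15 min. After 400 uM selenite was added, NADPH fluorescence (Ex 340/Em 450 nm) was followed for 8 min.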
TrxR1 substrate = substrates of rat thioredoxin reductase 1 | O89049 | purified TrxR1 substrate turnover, NADPH consumption readout | Potency, µM (titrated, usually from 114 µM), inactives show top-dose activity change, negative = substrate turnover | hit rate 0.01% among 390,000; further: potency means the concentration at half of the fitted maximal effect; on the % scale 0 is the no-effect control and ±100 the full control effect; nearly all actives have a fitted effect of over 50% in size
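Rat TrxR1, dispensed at 90 nM, was prereduced with 400 uM NADPH (final) for 5 min at ~22 deg C, then incubated with compound 15 min before 400 uM selenite. A first-read NADPH fluorescence drop versus no-compound background flagged substrates.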
ClpP mod = qHTS Assay for Activators of ClpP; ATP-dependent Clp protease proteolytic subunit (Bacillus subtilis (strain 168)), P80244; purified B. subtilis ClpP, FRET peptide cleavage, 20 min; Potency, µM (series often up to 57.5 µM), without a hit: at the highest dose activity change, negative = active; hit rate 1.9% among 340,000; AID 651965, 2013; active means well fitted falling curve with a large enough effect; inconclusive means small, poorly fitted or top-dose-only effect; inactive means no such curve, though single readings can be large or run the other way; further: potency means the concentration at half of the fitted maximal effect; the source files actives as falling curves though it sought activators and does not explain the sign; nearly all actives have a fitted effect of over 65% in size
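Purified B. subtilis ClpP, 10 microg/mL final in Tris/HCl pH8 with KCl, BSA, glycerol and Tween-20, cleaved an Abz/nitrotyrosine-quenched decapeptide. Fluorescence (ex 320, em 430) was read at 0 and 20 min at room temperature. Delta was normalized to 5.8 microM ADEP and DMSO/no-enzyme controls.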
miR-21 FLuc = raises the signal of a miR-21 reporter; HeLa miR-21 FLuc reporter, luciferase, 48 h; Potency, µM (highest dose often 38.3 µM), inactives show at the highest dose reporter change, positive = more light; 340,000 tested, under 10 active; active = well fitted rising curve with a large enough effect; inconclusive = small, poorly fitted or top-dose-only effect; inactive = no such curve, though single readings can be large or run the other way;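 note: % of control where 0% means no effect; miR-21 action dims this reporter so a rising signal means less miR-21 action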
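Compounds were titrated across several concentrations (up to approximately 40 uM) and incubated 48 hours with HeLa miR-21-FLuc reporter cells (miR-21 target sequence downstream of FLuc, endogenous miR-21). Readout was firefly luciferase luminescence after lytic detection reagent.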
Active calls of the source: *; ? = inconclusive; · = no result given; [ ] = dose if it differs, or a comment. Sampled rows, rich in hits. Any-hit rate of the full collection: about 2.5%. Unless noted, the call rests on the fitted dose curve; in most records, active means well fitted curve in the direction sought with a large enough effect; inconclusive means small, poorly fitted or top-dose-only effect, or another doubt; inactive means no such curve, though single readings can be large; an effect the other way counts as inactive or inconclusive.

Amino acid sequences for entries named in this document (tags omitted).
ATP-dependent Clp protease proteolytic subunit (Bacillus subtilis (strain 168)), P80244, UniProt P80244, whole entry, looked up: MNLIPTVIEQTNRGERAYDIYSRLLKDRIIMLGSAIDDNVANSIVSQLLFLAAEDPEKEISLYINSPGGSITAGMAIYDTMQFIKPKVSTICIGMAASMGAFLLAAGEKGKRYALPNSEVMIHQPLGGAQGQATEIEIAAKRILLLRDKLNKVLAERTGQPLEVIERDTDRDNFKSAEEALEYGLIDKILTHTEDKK

Screens by letter – A = Anesthetic bind; B = rTrxR1 inhibitor; C = TrxR1 substrate; D = ClpP mod; E = miR-21 FLuc
[1] CCCCCCCCNS(=O)(=O)CCNC1CC1
  A = ·; B = 44.7µM*; C = -5.2%; D = 1.6%; E = ·

[2] CCCCCCCCNS(=O)(=O)CCNCCCC
  A = ·; B = -14.5%; C = -5.5%; D = 0.7%; E = ·

[3] Cc1ccc(-c2cc3nn(-c4ccccc4)c(N)c3c(=O)o2)cc1
  A = 39.2%; B = 12.7%; C = 22.0%; D = 31.6µM*; E = -20.6%

[4] CCc1ccccc1N(C)C(=O)c1nn(C)c2c1CSc1ccccc1-2
  A = -0.9%; B = 10.7%; C = 3.6%; D = -0.4%; E = -0.3%

[5] Cc1ccc(C)c(-n2nnc(-c3nc(-c4ccccc4C)no3)c2C)c1
  A = 37.9%; B = 22.8%[57.1 µM]; C = 1.1%[57.1 µM]; D = -1.3%; E = -54.5%

[6] CCCc1cc(=O)oc2cc(C)c3c(-c4ccccc4)coc3c12
  A = -21.8%; B = 18.6%; C = 1.4%; D = 20µM*; E = -15.4%

[7] COc1ccccc1NC(=O)C1=C(C)Nc2nc(SCc3ccc(Cl)cc3)nn2C1c1ccccc1Cl (stereo not drawn)
  A = -3.1%; B = 11.5%; C = 1.0%; D = ?; E = -9.2%

[8] CCOC(=O)C1CCN(C(c2ccc(OCC)cc2)c2c(O)cc(C)n(CCOC)c2=O)CC1 (stereo not drawn)
  A = 56.1%; B = 25.1µM*; C = -3.1%[57.1 µM]; D = -1.2%; E = -0.8%

[9] CCOC(=O)C1CCN(C(c2ccc(C)cc2)c2c(O)cc(C)n(CCOC)c2=O)CC1 (stereo not drawn)
  A = -2.9%; B = ?; C = 1.0%[57.1 µM]; D = 1.5%; E = -1.2%

[10] CCOc1ccc(C(c2c(O)cc(C)n(CCOC)c2=O)N2CCN(c3ccccc3)CC2)cc1 (stereo not drawn)
  A = -3.3%; B = 11.2µM*; C = 8.1%[57.1 µM]; D = 0.6%; E = -5.6%

[11] COCCn1c(C)cc(O)c(C(c2ccc(Cl)cc2)N2CCN(c3ccccc3)CC2)c1=O (stereo not drawn)
  A = -14.9%; B = ?; C = 7.8%[57.1 µM]; D = 0.8%; E = -1.4%

[12] COc1ccc(C(c2c(O)cc(C)n(Cc3ccco3)c2=O)N2CCN(c3ccccc3)CC2)cc1 (stereo not drawn)
  A = -0.2%; B = 15.8µM*; C = 4.4%[57.1 µM]; D = 1.1%; E = 5.2%

[13] Cc1cc(Nc2cccc(Br)c2)n2c(nc3ccccc32)c1C#N
  A = -9.4%; B = 25.5%; C = 10.7%[11.4 µM]; D = -7.8%; E = 0.1%

[14] CCOc1ccccc1-n1nnc(-c2nc(-c3ccccc3C)no2)c1C
  A = -12.3%; B = 19.6%[57.1 µM]; C = 2.9%[57.1 µM]; D = 0.7%; E = -34.0%

[15] O=C(COC(=O)c1ccccc1-n1cnnn1)c1ccccc1
  A = ·; B = 27.3%; C = 9.6%; D = ·; E = ·

The final 3 compounds of the section above lead into the next.
Screens by letter – A = Anesthetic bind; B = rTrxR1 inhibitor; C = TrxR1 substrate; D = ClpP mod; E = miR-21 FLuc
[13] Cc1cc(Nc2cccc(Br)c2)n2c(nc3ccccc32)c1C#N
  A = -9.4%; B = 25.5%; C = 10.7%[11.4 µM]; D = -7.8%; E = 0.1%

[14] CCOc1ccccc1-n1nnc(-c2nc(-c3ccccc3C)no2)c1C
  A = -12.3%; B = 19.6%[57.1 µM]; C = 2.9%[57.1 µM]; D = 0.7%; E = -34.0%

[15] O=C(COC(=O)c1ccccc1-n1cnnn1)c1ccccc1
  A = ·; B = 27.3%; C = 9.6%; D = ·; E = ·

[16] O=C(COC(=O)c1ccccc1-n1cnnn1)c1ccc(Br)cc1
  A = ·; B = -4.1%; C = -1.3%; D = 15.8µM*; E = ·

[17] COc1ccc(-c2nc(-c3ccccc3)nc(Cl)c2C#N)cc1
  A = -7.9%; B = 26.3%; C = 38.7%; D = 31.6µM*; E = 1.7%

[18] COc1ccc(-c2nc(-c3cccc(C)c3)nc(Cl)c2C#N)cc1
  A = -14.3%; B = ·; C = ·; D = ·; E = -4.3%

[19] CCN(CC)Cc1cc(O)c(CN(CC)CC)cc1O
  A = -7.9%; B = 10µM*; C = 7.2%; D = -8.5%; E = -0.9%

[20] CCc1oc(C(=O)O)cc1CN(CC)CC
  A = -7.8%; B = 7.1%; C = -2.6%; D = -2.8%; E = -4.6%

[21] CSc1sc(C(=O)N2CCc3ccccc32)cc1S(=O)(=O)C(C)C
  A = -2.9%; B = -25.3%; C = -3.4%; D = 31.6µM*; E = -0.1%

[22] CCc1sc(C(=O)N2CCc3ccccc32)cc1C
  A = ?; B = 24.0%; C = -6.1%; D = -2.8%; E = -48.4%

[23] O=S(=O)(c1cccs1)N1CN(Cc2cccs2)c2nc3ccccc3nc21
  A = -12.8%; B = -12.2%; C = -0.2%; D = -12.0%; E = -9.5%

[24] C=CCN1CN(S(=O)(=O)c2cccs2)c2nc3ccccc3nc21
  A = -14.6%; B = -13.8%; C = 63.8%; D = 25.1µM*; E = -12.9%

[25] Cc1cc(Br)ccc1NC(=O)CN(C)C(=O)CSC(=S)N1CCCC1
  A = ·; B = -5.4%; C = -12.9%; D = 3.16µM*; E = ·

[26] CC(C)c1cc(/C=C(\C#N)C(=O)NCCCc2ccccc2)cc(C(C)C)c1O
  A = -6.6%; B = ·; C = ·; D = ·; E = ·

[27] O=C(O)C(=Cc1cccc([N+](=O)[O-])c1)c1ccc(Cl)cc1
  A = ·; B = -23.3%; C = -2.6%; D = 25.1µM*; E = ·

[28] Cc1cccc(C(=Cc2ccc([N+](=O)[O-])cc2)C(=O)O)c1
  A = ·; B = ·; C = ·; D = 0.8%; E = ·

[29] CC1CCN(C(=O)Cn2cc(SCC(=O)NCc3ccc(F)cc3)c3ccccc32)CC1
  A = -15.1%; B = 14.3%; C = 2.0%; D = -1.0%; E = 5.7%

[30] COC1CCN(Cc2c(C(=O)N3CCc4ccccc4C3)nc3ccc(Cl)cn23)CC1
  A = -7.0%; B = -7.7%; C = -7.2%; D = -2.4%; E = -8.6%
